Measurements taken from ChEMBL document CHEMBL1123159, “Quantitative evaluation of the beta 2-adrenoceptor intrinsic activity of N-tert-butylphenylethanolamines” (J Med Chem, 1986).

Protein sequences, listed by entry. Tags and fused reporters are not part of them.
UniProt Q28044, whole entry: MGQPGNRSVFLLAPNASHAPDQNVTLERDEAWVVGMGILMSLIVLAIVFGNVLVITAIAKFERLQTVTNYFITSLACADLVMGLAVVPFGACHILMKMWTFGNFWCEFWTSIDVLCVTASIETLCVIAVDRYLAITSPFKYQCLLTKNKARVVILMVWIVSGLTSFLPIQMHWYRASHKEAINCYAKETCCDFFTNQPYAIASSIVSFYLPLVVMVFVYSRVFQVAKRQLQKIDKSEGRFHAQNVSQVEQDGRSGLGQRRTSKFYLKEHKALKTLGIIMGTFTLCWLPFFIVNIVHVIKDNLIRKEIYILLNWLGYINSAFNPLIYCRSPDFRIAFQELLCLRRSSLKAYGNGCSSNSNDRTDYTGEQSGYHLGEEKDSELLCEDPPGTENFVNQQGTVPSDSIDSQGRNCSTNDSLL

How the values were obtained:
[1] = log(1/ISA) value of the compound
[2] = target: Beta-2 adrenergic receptor (Bos taurus, UniProt Q28044); assay: Apparent binding affinity constant to beta-2 adrenergic receptor determined using [3H]DHA; settings: read-out: KD app

## CC(C)(C)NCC(O)c1cc(Cl)c(N)c(Cl)c1 (configuration not stated) [CLENBUTEROL]
[1]
  Log 1/ISA: 0.28
[2]
  Kd: 0.037 µM
